According to patent publication US20200306295A1, “METHOD AND DEVICE FOR ANNIHILATION OF Staphylococcus aureus” (priority 2017, published 2020):

Test system: stationary-phase MRSA
Format: cell-based, S. aureus
Settings: 16 min laser stated for tetracycline; 2-fold or larger is synergy (FICI)
Experimental: To monitor the response of bacteria to laser treatment alone, antibiotic treatment alone, or their combinations, bacterial growth was continuously monitored overnight (18 hours with an interval of 30 min at 37° C.) by measuring optical density at 600 nm (OD600). Depending on the specific assay applied, the bacterial cells were suspended in 100 or 200 μl TSB medium under different treatment schemes (antibiotic alone, laser treatment alone, antibiotic plus laser treatment) with a final concentration of ˜10^5 CFU/ml. Bacterial growth was defined as OD600≥0.1.
Stationary-phase bacterial cells was washed and resuspended in 1×PBS at its original concentration. […] The treated droplet was collected and resuspended into 5 ml TSB (1:1000 dilution) for each group. […] After serial dilution, bacterial growth within the same well plate was monitored by a plate reader for 18 hours (OD600, 37° C.). […] Based on the readout of OD600, a heat map was created to evaluate the antibiotic potentiation or synergistic effect enabled by STX photolysis.
Based on the checkerboard results, the fractional inhibitory concentration index (FICI), a synergy evaluation method between two antibiotics, was calculated as below: FICI=MIC of antibiotic A in combination/MIC of antibiotic A alone+MIC of antibiotic B in combination/MIC of antibiotic B alone. […]

Cc1onc(-c2ccccc2)c1C(=O)N[C@@H]1C(=O)N2[C@@H]1SC(C)(C)[C@@H]2C(=O)O [Oxacillin, oxacillin]
fold reduction of lowest concentration completely inhibiting MRSA growth within 18 hours, with laser treatment: 8 fold
